Measured values from paper PMC7647070, “Mechanisms of QT prolongation by buprenorphine cannot be explained by direct hERG channel block” (PLoS ONE, 2020).

By UniProt entry, the sequences of proteins in these tests, tags left out. Where a name states a change or a piece, a line headed by the entry shows the natural chain unless it says otherwise.
UniProt Q12809: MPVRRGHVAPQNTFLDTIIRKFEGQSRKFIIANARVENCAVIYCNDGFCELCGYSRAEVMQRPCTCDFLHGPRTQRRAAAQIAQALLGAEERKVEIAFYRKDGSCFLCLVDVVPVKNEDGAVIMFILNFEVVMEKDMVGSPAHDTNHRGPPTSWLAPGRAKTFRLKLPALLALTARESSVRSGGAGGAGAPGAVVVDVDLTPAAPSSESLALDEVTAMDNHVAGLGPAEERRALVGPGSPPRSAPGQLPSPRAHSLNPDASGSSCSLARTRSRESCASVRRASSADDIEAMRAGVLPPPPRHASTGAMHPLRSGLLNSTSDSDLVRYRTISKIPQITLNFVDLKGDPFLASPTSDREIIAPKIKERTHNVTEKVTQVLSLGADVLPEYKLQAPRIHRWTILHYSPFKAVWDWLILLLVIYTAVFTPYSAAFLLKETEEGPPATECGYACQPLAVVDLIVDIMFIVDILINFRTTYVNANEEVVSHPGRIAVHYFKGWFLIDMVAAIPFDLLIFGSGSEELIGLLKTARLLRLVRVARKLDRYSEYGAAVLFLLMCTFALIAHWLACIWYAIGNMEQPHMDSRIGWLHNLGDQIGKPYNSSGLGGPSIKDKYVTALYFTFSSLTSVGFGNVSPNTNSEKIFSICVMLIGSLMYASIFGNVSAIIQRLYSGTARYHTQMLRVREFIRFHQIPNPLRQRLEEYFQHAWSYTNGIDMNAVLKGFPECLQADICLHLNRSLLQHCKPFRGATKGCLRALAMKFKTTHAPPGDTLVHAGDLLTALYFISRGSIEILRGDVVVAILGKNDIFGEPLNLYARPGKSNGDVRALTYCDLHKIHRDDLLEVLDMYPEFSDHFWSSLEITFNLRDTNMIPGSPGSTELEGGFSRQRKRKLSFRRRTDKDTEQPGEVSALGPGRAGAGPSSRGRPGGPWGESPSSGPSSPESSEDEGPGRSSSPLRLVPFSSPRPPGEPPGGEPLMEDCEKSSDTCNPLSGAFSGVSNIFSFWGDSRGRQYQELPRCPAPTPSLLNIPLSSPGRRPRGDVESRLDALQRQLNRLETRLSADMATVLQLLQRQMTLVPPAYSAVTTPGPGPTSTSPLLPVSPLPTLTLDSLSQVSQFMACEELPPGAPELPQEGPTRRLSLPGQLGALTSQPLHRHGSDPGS

Experiments:
[1] = molecular target: hERG1a (homomeric hERG channel, IhERG) (Homo sapiens, UniProt Q12809); experiment: whole-cell patch clamp, tail current; settings: read-out: IC50 (μM) at 37°C from this study (mean ± SD), pH […], tail at -50 mV after […] s at +[…] mV
[2] = molecular target: hERG1a/1b (heteromeric hERG channel, IhERG) (Homo sapiens, UniProt Q12809); experiment: whole-cell patch clamp, tail current; settings: read-out: IC50 (μM) at 37°C from this study (mean ± SD), pH […], tail at -50 mV after […] s at +[…] mV

Methadone
IC50 [1]: 2.8 µM
IC50 [2]: 2.7 µM
